Data reported in patent US20210196782A1 (priority 2015, published 2021).
This is a selection: effects in other tests are not listed, and their absence says nothing.

Chains of the proteins cited; added tags and fusions are not shown.
UniProt P41145, whole entry: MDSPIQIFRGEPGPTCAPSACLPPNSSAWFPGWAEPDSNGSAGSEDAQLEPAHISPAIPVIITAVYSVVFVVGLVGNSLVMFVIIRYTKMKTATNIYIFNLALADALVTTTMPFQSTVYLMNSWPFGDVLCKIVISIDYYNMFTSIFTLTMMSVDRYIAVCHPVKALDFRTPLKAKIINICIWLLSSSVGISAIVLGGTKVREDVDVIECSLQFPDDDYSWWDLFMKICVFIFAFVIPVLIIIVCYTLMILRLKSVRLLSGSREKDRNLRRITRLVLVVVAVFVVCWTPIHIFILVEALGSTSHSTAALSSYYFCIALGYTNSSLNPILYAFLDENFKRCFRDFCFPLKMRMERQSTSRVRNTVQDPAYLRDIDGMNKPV
UniProt P33535, whole entry: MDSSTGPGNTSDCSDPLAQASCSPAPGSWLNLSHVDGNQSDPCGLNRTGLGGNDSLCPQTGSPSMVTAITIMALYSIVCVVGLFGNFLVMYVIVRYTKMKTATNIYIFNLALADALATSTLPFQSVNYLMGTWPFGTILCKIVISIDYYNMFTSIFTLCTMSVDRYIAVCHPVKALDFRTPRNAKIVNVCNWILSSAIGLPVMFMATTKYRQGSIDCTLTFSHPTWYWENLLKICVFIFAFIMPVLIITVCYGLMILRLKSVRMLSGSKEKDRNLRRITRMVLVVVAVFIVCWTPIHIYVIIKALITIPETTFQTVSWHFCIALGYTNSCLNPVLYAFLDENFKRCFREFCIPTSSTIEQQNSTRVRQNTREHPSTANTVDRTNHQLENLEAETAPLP
UniProt P41143, whole entry: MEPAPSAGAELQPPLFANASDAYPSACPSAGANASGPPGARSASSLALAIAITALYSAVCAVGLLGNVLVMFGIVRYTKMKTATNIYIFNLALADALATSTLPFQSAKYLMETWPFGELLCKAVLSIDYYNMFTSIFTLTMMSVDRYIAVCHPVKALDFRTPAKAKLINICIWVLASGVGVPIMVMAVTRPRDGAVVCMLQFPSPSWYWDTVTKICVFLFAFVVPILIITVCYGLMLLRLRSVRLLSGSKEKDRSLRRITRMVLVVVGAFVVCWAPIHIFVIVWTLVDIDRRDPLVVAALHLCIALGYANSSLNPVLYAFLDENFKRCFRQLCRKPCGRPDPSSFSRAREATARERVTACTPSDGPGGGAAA

Assays:
KOR [1] = biological target: T1, KOR (Homo sapiens, UniProt P41145); experiment: [35S]GTPγS binding assay at KOR, agonist and antagonist modes, CHO cells; details: for KOR [35S]GTPγS Emax / EC50: agonist mode; for KOR [35S]GTPγS Emax: % relative to 10 μM U50,488 stimulation; for KOR function: in words; for EC50: read-out: KOR [35S]GTPγS EC50, hKOR in CHO cells; for IC50: read-out: KOR [35S]GTPγS IC50, antagonist mode, inhibition of 100 nM U50,488 stimulation
MOR = MOR (Rattus norvegicus, UniProt P33535); experiment: Radioligand competition binding at MOR with [3H]DAMGO, membranes from transfected HEK cells; details: read-out: Ki MOR [3H]DAMGO, Kd=0.85 nM, HEK cell membranes
DOR = DOR (Homo sapiens, UniProt P41143); experiment: Radioligand competition binding at DOR with [3H]DPDPE, membranes from transfected HEK cells; details: read-out: Ki DOR [3H]DPDPE, Kd=0.50 nM, HEK cell membranes
KOR [2] = biological target: T1, KOR; experiment: Radioligand competition binding at KOR with [3H]U69,593, membranes from transfected HEK cells; details: read-out: Ki KOR [3H]U69,593; [3H]U69,593, Kd=5.3 nM; HEK cell membranes

Row | Compound | KOR [35S]GTPγS Emax (KOR [1]) [%] | KOR function (KOR [1]) | EC50 (KOR [1]) [nM] | Ki (MOR) [nM] | Ki (DOR) [nM] | Ki (KOR [2]) [nM] | IC50 (KOR [1]) [nM]
1 | CCCC[C@@H](NC(=O)[C@@H](N)Cc1c(C)cc(O)cc1C)C(=O)NCC(=O)N[C@@H](Cc1ccccc1)C(N)=O | 59 | partial agonist | 84 | 0.5 | 1.2 | 5 | –
2 | CCCC[C@@H](NC(=O)[C@@H](N)Cc1c(C)cc(O)cc1C)C(=O)NCC(=O)N[C@@H](Cc1ccc(F)cc1)C(N)=O | 62 | partial agonist | 10 | 0.15 | 0.64 | 0.98 | 250
3 | CCCC[C@@H](NC(=O)[C@@H](N)Cc1c(C)cc(O)cc1C)C(=O)NCC(=O)N[C@@H](Cc1ccc(Cl)cc1)C(N)=O | 18 | – | 7 | – | – | – | 66
